Results from publication PMC9486168, “Protein-protein interaction-based high throughput screening for adenylyl cyclase 1 inhibitors: Design, implementation, and discovery of a novel chemotype” (Frontiers in Pharmacology, 2022).

What was measured:
CaM = target: T1, CaM (Homo sapiens, UniProt P0DP23); experiment: 1H-15N HSQC NMR of 15N-CaM with compound; assay type: binding; conditions: 5 equivalent molar excess over 100 μM CaM
T1 construct: 6X-His-GST (N, cleaved yes); made in house; host or cells: E. coli BL21-CodonPlus (DE3)-RIPL in M9 minimal media with 15NH4Cl
Experimental: All NMR samples contained 100 μM ^15N-CaM in 20 mM HEPES pH 7.4, 100 mM KCl, 10 mM CaCl2, 10% D2O, and 5% DMSO. Initial spectra were collected for CaM alone before individual compounds were titrated to observe chemical shift perturbations. All spectra were acquired at 298 K using a 600 MHz Bruker Avance NEO NMR spectrometer with a triple resonance gradient cryoprobe. NMR spectra were processed using NMRPipe and analyzed using NMRFAM-SPARKY.

AC8-C2b/CaM = target: T2, AC8-C2b/CaM (Homo sapiens, UniProt P0DP23); experiment: AC8-C2b/CaM FP counterscreen assay; assay type: binding; conditions: ratio >1: more potent in AC1/CaM FP;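 further: fluorescence polarization of AC peptide binding to GST-CaM in HEPES buffer with KCl and 50 µM CaCl2, compound preincubated 30 min with GST-CaM, DMSO and calmidazolium as controls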
T2 construct: made in house; host or cells: E. coli BL21-CodonPlus (DE3)-RIPL

## CCc1oc2ccccc2c1C(=O)c1cc(Br)c(O)c(Br)c1 [Compound 12, Benzbromarone]
CaM
  chemical shift perturbations (CSP) of 15N-CaM: largest CSPs
AC8-C2b/CaM
  Ki ratio (AC8-C2b/AC1): ~3 and 3.1

Where “and” joins values, the source holds several entries; their conditions need not be identical. Identical values can stand only once.
